# Patent publication US11091451B2, “SHMT inhibitors and uses thereof” (Raze Therapeutics, Inc., priority 2016, dated 2021)
# The chains behind the UniProt entries cited, without tags or fusion partners. Residues count along the entry.
# UniProt P34896, whole entry: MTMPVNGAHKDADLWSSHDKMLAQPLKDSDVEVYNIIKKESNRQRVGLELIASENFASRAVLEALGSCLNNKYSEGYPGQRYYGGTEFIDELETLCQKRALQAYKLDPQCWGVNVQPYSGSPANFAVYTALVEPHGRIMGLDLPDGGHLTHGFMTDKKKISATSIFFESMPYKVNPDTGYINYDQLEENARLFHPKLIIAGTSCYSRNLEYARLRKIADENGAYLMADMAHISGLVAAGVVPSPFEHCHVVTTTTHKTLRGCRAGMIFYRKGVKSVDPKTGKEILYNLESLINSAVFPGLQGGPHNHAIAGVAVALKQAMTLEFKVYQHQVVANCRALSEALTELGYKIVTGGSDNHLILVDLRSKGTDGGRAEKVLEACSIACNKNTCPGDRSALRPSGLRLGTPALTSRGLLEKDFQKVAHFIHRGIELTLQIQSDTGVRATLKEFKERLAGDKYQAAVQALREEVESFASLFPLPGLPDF
# UniProt P34897, 30-504 limits assumed: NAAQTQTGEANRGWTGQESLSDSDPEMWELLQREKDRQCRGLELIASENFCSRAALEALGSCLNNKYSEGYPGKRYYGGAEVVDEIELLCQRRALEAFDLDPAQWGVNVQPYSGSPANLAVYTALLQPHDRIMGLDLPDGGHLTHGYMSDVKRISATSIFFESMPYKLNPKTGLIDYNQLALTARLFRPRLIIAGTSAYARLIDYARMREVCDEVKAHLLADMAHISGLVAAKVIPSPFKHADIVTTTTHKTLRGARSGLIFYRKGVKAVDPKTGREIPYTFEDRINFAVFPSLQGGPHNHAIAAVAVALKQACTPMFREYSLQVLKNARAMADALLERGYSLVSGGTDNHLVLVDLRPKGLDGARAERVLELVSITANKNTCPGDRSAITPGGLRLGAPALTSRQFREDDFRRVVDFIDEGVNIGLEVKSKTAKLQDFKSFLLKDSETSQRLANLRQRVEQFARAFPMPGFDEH
# How the values were obtained:
# [1] = molecular target: human cytosolic Serine Hydroxymethyl transferase 1 (SHMT1) (Homo sapiens (Human), UniProt P34896); test: SHMT1 activity inhibition assay (serine production from glycine and CH2-THF, mass spectroscopy); conditions: read-out: SHMT1 IC50; 60 minutes at room temperature
# From the text: Full length human cytosolic Serine Hydroxymethyl transferase 1 (SHMT1, residues 1-483 in Uniport ID P34896) was expressed as an N-terminal His6 tagged protein and purified in E. coli using nickel capture followed by size-exclusion chromatography. Human mitochondrial SHMT2 (residues 30-504 in Uniprot ID P34897) with mitochondrial leader sequence deleted was expressed as an N-terminal His6 tagged protein and purified in E. coli using nickel capture followed by size-exclusion chromatography.
# Serine hydroxymethyltransferases catalyze the reversible hydroxymethylation of glycine to serine, with methylene tetrahydrofolate (CH2-THF) providing the additional carbon. SHMT1 and SHMT2 activity was determined by measuring serine production from glycine and CH2-THF using mass spectroscopy. Briefly, 15 ul of 0.5 mM glycine and 0.2 mM CH2-THF in 20 mM TEA, pH8.0, 0.2 mM NADPH were added to 384 well plate containing 0, 0.05 mM, 0.005 mM or 0.0005 mM of inhibitor. 15 ul of SHMT1 or 2 were added to initiate the reaction. The plate was incubated for 60 minutes at room temperature and the reaction was quenched by the addition of 30 ul of 10% trichloroacetic acid. Serine produced was analyzed using Rapidfire 360 and API4000^+ in the positive ion mode.
# [2] = molecular target: Human mitochondrial SHMT2 (Homo sapiens (Human), UniProt P34897); test: SHMT2 activity inhibition assay (serine production from glycine and CH2-THF, mass spectroscopy); conditions: read-out: SHMT2 IC50; 60 minutes at room temperature
compound,measurement,setting,value
C[C@H](NC(=O)Cc1csc(-c2ccc(OC(F)(F)F)cc2)n1)C(=O)O,IC50,[1],100 to 500 µM
same,IC50,[2],10 to 100 µM
